BindingDB's records for doi:10.1021/jm100555f (Harvard Medical School, 2010)
pEC50: −log10 of the molar value.

Assay: Inhibition of Bcr-Abl in mouse BA/F3 cells

Row | Structure (SMILES) | pEC50
1 | COc1ccc(Cn2ccc3c(Nc4ccc(OC(F)(F)F)cc4)ncnc32)cc1 [7-(4-methoxybenzyl)-N-(4-(trifluoromethoxy)phenyl)-7H-pyrrolo[2,3-d]pyrimidin-4-amine] | 5.01
2 | O=C(c1cc2c(Nc3ccc(OC(F)(F)F)cc3)ncnc2s1)N1CCN(N2CCCC2)CC1 [(4-(pyrrolidin-1-yl)piperazin-1-yl)(4-(4-(trifluoromethoxy)phenylamino)thieno[2,3-d]pyrimidin-6-yl)methanone] | 5.87

Compounds with a higher pEC50, results first:

Row | pEC50 | Structure (SMILES)
3 | 6.40 | FC(F)(F)Oc1ccc(Nc2cc(-c3cnn(Cc4cccnc4)c3)ncn2)cc1 [6-(1-(pyridin-3-ylmethyl)-1H-pyrazol-4-yl)-N-(4-(trifluoromethoxy)phenyl)pyrimidin-4-amine]
4 | 6.48 | OCc1cc2c(Nc3ccc(OC(F)(F)F)cc3)ncnc2s1 [(4-(4-(trifluoromethoxy)phenylamino)thieno[2,3-d]pyrimidin-6-yl)methanol]
5 | 6.39 | O=C(c1cc2c(Nc3ccc(OC(F)(F)F)cc3)ncnc2s1)N1CCNCC1 [piperazin-1-yl(4-(4-(trifluoromethoxy)phenylamino)thieno[2,3-d]pyrimidin-6-yl)methanone]
